Binding of CDR-mutated scFvs to a peptide of the spike HR2 region

Target peptide (SARS-CoV-2 spike, HR2 region): PDVDLGDISGINAS

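Phage display of a naive human antibody library on the peptide gave the parent. The library (AAYL52) carries one to three amino acid substitutions per variant, with no insertions or deletions. The scFvs were displayed on barcoded MATa yeast, the peptide on MATalpha yeast. Binding brings cells together so that they mate, and sequencing counts the barcode pairs among the diploids. Read counts were normalised to the haploid input and turned into Kd by a linear fit to BCL2-family pairs of known affinity, for each replicate. Each pool was mated in three replicate cultures.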

Each scFv is VH, three GGGGS repeats, VL, as in the parent Ab-95, and differs from it in the CDRs of the light chain only.
VH: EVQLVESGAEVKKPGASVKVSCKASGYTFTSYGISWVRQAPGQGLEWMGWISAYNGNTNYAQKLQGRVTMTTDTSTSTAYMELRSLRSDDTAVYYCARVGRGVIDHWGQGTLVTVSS
VL: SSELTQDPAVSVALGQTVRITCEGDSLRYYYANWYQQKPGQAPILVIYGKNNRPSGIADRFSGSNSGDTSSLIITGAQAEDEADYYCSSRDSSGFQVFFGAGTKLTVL

Variants are written as CDR1, CDR2 and CDR3 of the light chain (limits as in the source). Parent: EGDSLRYYYAN, GKNNRPS, SSRDSSGFQVF. Values are log10 of the apparent Kd in nM; lower means stronger binding. Averages over replicates are reported, and they cover detected replicates only. A pair that was not seen in any replicate is written "nd"; this usually means weak binding, but a binder can also be missed. Entries are sorted by rising average, undetected variants last. Empty control strains, which show no peptide, gave a signal in 28% of pairings with library AAYL52; the median was 3.91 and 95% of these signals were weaker than 2.90. No background was subtracted. In this assay the parent's reference entry averaged 2.31; its copy inside this library read 2.25.

EGKSLQYKYAN, GKNNRPS, SSRDSSGFQVF: 1.61 (3 of 3 replicates).
AGASLRYYYAN, GKNNRPS, SSRDSWGFQVF: 1.97 (2 of 3 replicates).
EGDSLRYPYAN, GKNNRPQ, SSRDRSGFQVF: 2.09 (3 of 3 replicates).
EGDSLDYYYAN, GKNNRPS, SYRYSSGFQVF: 2.10 (3 of 3 replicates).
EGDSLRYYYAN, GKDNRPS, SSRTSSGFQLF: 2.29 (3 of 3 replicates).
EGDSLPYYYAN, GKNNRPN, SSRDSSGSQVF: 2.34 (3 of 3 replicates).
EGDSLRYYYAN, GKNNRHS, SSWDSSGAQVF: 2.61 (3 of 3 replicates).
EGDSLRYPYAN, GQNNRNS, SSRDSSGFQVF: 2.69 (3 of 3 replicates).
EGDSLRYYYAN, GKGNRPS, SLRDSSGFQVF: 3.06 (3 of 3 replicates).
EGDSQRMYYAN, GKNNRPS, ASRDSSGFQVF: 3.20 (3 of 3 replicates).
EGDSTRYYYAN, GKNNRPS, FSRGSSGFQVF: 3.25 (2 of 3 replicates).
EGDSLRYYYAN, GKNNRPC, SCGDSSGFQVF: 3.38 (3 of 3 replicates).
EGMSHRYYYAN, GKNNRPS, SSRDSSGEQVF: 3.43 (3 of 3 replicates).
EGDSLRYYYFN, GKNNRPS, SSRDSSGFRVN: 3.60 (1 of 3 replicates).
EGDSLRYYYMG, GKNNRPS, SSNDSSGFQVF: 3.69 (3 of 3 replicates).
EGVHLRYYYAN, GKNNGPS, SSRDSSGFQVF: 3.70 (2 of 3 replicates).
EGDSLRYYYAN, GKNNYPS, SSRDSSWFQVF: 3.70 (3 of 3 replicates).
EGDSLRYYYQN, GKNNRPS, SSRDSSGFCVF: 3.91 (2 of 3 replicates).
EPDSLRYYYAN, GKNNRWS, SSRDSSGFQVF: 3.96 (3 of 3 replicates).
EGDSLRYYVSN, GKNNRPS, SNRDSSGFQVF: 3.97 (2 of 3 replicates).
EGDELLYYYAN, GKNNRPS, SSRDHSGFQVF: 4.02 (3 of 3 replicates).
EGDSLRYYYAN, GKLNRPS, SSRDSSGFQCF: 4.06 (1 of 3 replicates).
EGDSLRYYYAA, GKNNRKS, SSGDSSGFQVF: 4.08 (2 of 3 replicates).
ELDSLRYYYAN, GKNNIPS, SSRDSFGFQVF: 4.10 (1 of 3 replicates).
EPDSLRYYYAM, GKNNRPS, SSRDSSGAQVF: 4.25 (3 of 3 replicates).
EGDSLRYYYAM, GKNNRPS, SSRDSQGQQVF: 4.30 (3 of 3 replicates).
EGDRLRYYYAN, GFNNRPS, SSLDSSGFQVF: 4.33 (3 of 3 replicates).
EGDQLRYYYAN, GKTNRPS, SSRDASGFQVF: 4.38 (2 of 3 replicates).
EGDSLRYYYAN, SKNNRPS, SSWDSSGFQLF: 4.39 (1 of 3 replicates).
EGDSLRYIYAN, GKNPRPS, SSRDSSGFVVF: nd (0 of 3 replicates).
WGDSLRYYYAN, GKNNRPS, SSRDSSGFFVN: nd (0 of 3 replicates).
EGDTLAYYYAN, GKNNRPS, SDRDSSGFQVF: nd (0 of 3 replicates).
EGDSLRYYYAN, GKNNRPS, SSRVSSGFQNF: nd (0 of 3 replicates).
EGDSLRYYYCN, GTNNRPS, SYRDSSGFQVF: nd (0 of 3 replicates).

Repeated from above, the 3 best binders with a signal in all replicates:

| CDR-L1 | CDR-L2 | CDR-L3 | mean log10 Kd (nM) | detected |
|---|---|---|---|---|
| EGKSLQYKYAN | GKNNRPS | SSRDSSGFQVF | 1.61 | 3 of 3 |
| EGDSLRYPYAN | GKNNRPQ | SSRDRSGFQVF | 2.09 | 3 of 3 |
| EGDSLDYYYAN | GKNNRPS | SYRYSSGFQVF | 2.10 | 3 of 3 |

From the AlphaSeq antibody data of Engelhart et al. 2022 (doi:10.1038/s41597-022-01779-4), copy in the FLAb collection.